Chains of the proteins cited; added tags and fusions are not shown.
UniProt Q00960, whole entry, looked up: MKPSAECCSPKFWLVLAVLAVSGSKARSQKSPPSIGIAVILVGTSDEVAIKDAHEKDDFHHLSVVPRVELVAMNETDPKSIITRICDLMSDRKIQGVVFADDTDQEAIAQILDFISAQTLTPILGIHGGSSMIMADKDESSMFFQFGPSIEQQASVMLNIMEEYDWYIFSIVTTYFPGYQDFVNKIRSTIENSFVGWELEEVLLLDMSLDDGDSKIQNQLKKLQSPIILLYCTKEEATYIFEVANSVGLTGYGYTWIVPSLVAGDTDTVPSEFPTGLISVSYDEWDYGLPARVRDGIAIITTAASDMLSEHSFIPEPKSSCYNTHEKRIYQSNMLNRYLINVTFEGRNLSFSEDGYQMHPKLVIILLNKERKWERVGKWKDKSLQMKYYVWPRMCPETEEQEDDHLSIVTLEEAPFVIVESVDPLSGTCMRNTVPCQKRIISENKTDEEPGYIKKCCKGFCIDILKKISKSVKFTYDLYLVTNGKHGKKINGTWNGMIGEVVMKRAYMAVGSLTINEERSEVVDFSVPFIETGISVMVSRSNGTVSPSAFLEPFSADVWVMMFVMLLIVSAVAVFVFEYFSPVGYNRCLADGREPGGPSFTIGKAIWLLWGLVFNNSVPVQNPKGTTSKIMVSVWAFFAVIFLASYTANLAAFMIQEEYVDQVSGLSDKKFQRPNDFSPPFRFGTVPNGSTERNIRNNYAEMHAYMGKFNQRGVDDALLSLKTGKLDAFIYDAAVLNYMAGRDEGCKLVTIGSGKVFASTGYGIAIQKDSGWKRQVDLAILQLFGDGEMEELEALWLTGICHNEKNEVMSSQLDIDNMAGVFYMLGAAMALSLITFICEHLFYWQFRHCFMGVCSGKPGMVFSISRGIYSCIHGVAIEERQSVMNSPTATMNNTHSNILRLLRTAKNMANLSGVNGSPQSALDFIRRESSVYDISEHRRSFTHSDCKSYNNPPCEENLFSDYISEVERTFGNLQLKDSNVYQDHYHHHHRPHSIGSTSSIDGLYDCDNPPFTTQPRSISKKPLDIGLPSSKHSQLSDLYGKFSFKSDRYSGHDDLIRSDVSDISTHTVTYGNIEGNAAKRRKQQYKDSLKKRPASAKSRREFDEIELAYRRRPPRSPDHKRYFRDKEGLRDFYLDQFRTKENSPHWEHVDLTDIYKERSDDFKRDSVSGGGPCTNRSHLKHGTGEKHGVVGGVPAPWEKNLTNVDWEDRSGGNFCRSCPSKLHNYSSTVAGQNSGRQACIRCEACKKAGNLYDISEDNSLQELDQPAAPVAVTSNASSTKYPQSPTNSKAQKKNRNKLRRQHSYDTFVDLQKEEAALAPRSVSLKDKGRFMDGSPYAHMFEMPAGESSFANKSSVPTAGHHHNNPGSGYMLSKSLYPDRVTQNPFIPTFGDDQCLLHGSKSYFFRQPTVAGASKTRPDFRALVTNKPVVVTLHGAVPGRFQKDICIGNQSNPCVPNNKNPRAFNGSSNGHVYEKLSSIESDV

According to ChEMBL document CHEMBL4011622, “The Structure-Activity Relationship of a Tetrahydroisoquinoline Class of N-Methyl-d-Aspartate Receptor Modulators that Potentiates GluN2B-Containing N-Methyl-d-Aspartate Receptors” (J Med Chem, 2017):

Tests used:
[1] = target: T1, Glutamate NMDA receptor; Grin1/Grin2b (Rattus norvegicus) (UniProt P35439+Q00960); assay: Positive allosteric modulation of recombinant rat GluN1/GluN2B receptor expressed in xenopus laevis oocyte assessed as potentiation of glutamate and glycine-induced current response at 30 uM at holding potential -40mV by two electrode voltage clamp method relative to control
How it was run: (§1)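 Two-electrode voltage clamp at -40 mV, 23°C, pH 7.4 Ba²⁺ recording solution, on Xenopus oocytes expressing rat NMDA receptors. Currents were evoked by 100 µM glutamate plus 30 µM glycine, with compound co-applied (DMSO 0.05–0.5% final). […] Each compound used at least 4 oocytes from at least 2 frogs.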

[2] = target: T1, Glutamate NMDA receptor; Grin1/Grin2b (Rattus norvegicus); assay: Positive allosteric modulation of recombinant rat GluN1/GluN2B receptor expressed in xenopus laevis oocyte assessed as potentiation of glutamate and glycine-induced current response at 10 uM at holding potential -40mV by two electrode voltage clamp method relative to control; conditions: 30 uM, in the assay text read “at 30 uM” for “at 10 uM”; how it was run: as §1

Row | SMILES | Activity [1] | Emax [1] | Emax [2]
1 | COc1ccc(OCC2c3ccc(OC)cc3CCN2C(=O)c2cccc(Cl)c2)cc1 (centres undefined) | 90% |  | 
2 | COc1ccc(OCC2c3ccc(OC(C)C)cc3CCN2C(=O)c2cccc(C(F)(F)F)c2)cc1 (centres undefined) | 196% | 206% | 
3 | COc1ccc(OCC2c3ccc(OCC(C)C)cc3CCN2C(=O)c2cccc(Cl)c2)cc1 (centres undefined) |  |  | 333%
